# Experimental data as given in PubChem BioAssay AID2777 (Johns Hopkins Ion Channel Center, 2010).
# The entries are a selection whose mix differs from that of the whole data set. Some of these compounds have results that are not shown, active ones among them. Activity calls are given as the source filed them.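 Rule for the calls: active = rise or fall in signal beyond 3 SD of buffer-only wells in both replicate plates, either sign; inactive = the rest.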
# Test system: transient receptor potential cation channel C4 (TRPC4), mouse
# Assay: mouse TRPC4 modulation by TRPC6 hits, confirmation, selectivity assay for TRPC6 inhibitor project, cell-based, HEK293 TRPC4/mu-opioid, membrane potential dye (AID 2777);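 note: integrated kinetic ratio of fluorescence range over baseline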
# Details: membrane potential fluorescence, at 10 µM
smiles,measurement,value
O=C(OC1CN2CCC1CC2)C(CO)(c1ccccc1)c1ccccc1 (stereo unspecified),"activity change, negative = inhibition",active: -0.62%
